# Ab-95 light chain CDR variants: yeast mating affinities

Target peptide (SARS-CoV-2 spike, HR2 region): PDVDLGDISGINAS

The variants keep the heavy chain, the linker and the frameworks of Ab-95 (scFv order VH, a (GGGGS)3 linker, VL).
VH: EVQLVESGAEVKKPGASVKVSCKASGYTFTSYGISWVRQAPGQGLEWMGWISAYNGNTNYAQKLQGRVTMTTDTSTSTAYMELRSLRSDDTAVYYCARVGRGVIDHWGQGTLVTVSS
VL: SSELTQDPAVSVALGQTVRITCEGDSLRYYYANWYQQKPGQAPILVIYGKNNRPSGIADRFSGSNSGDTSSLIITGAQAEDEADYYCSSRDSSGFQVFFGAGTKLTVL

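Phage display of a naive human antibody library on the peptide gave the parent. Variants in AAYL52 differ from the parent at up to three CDR positions; double and triple changes were sampled at random. AlphaSeq pools MATa yeast showing the antibodies with MATalpha yeast showing the peptide. After mating in shaken culture at 30 °C for 16 h, diploids were selected and their barcode pairs sequenced. Scores were corrected for input abundance and mapped to Kd with protein pairs of known affinity run in the same pool. The assay was run in three technical replicates.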

Changes read parent residue, position, new residue, counted from the first residue of the VL shown. Scale: log10 of Kd in nM, estimated from mating counts; low values are strong binders. Replicates are averaged; those with no signal do not enter the mean. A pair that was not seen in any replicate is written "not detected"; this usually means weak binding, but a binder can also be missed. In this assay the parent's reference entry averaged 2.31; its copy inside this library read 2.25. Three control strains display no target. For library AAYL52, 28% of the pairings with them gave a signal, with a median of 3.91 and one signal in twenty below 2.90, so weak values seen in few replicates may be background.

changes | mean log10 Kd (nM) | seen in
R28F/A32I/R53V | 1.08 | 3 of 3
S26V/R28T/Y30S | 1.76 | 3 of 3
Y31F/A32Y/F98V | 4.49 | 2 of 3
K50W/S88I/R90C | not detected | 0 of 3
Y29H/G94L/F98A | 3.50 | 3 of 3
G24C/S88G/F95H | 3.65 | 1 of 3
G24A/S55M/F95G | 2.14 | 3 of 3
Y29M/Y31Q/F95C | 2.00 | 3 of 3
Y30T/S88T/S89T | 3.28 | 3 of 3
Y31T/P54A | 1.79 | 3 of 3
R53M/V97G | not detected | 0 of 3
N33V/R53C/D91F | 3.94 | 1 of 3
Y31H/S93Y/G94A | 2.41 | 3 of 3
E23Q/S89R/S93A | 3.90 | 1 of 3
Y31P/P54K/S88C | 2.47 | 3 of 3
D25P/Y30E/R90N | 1.80 | 3 of 3
G24V/Y31S/S88A | not detected | 0 of 3
Y31M/S89T/F98H | 2.49 | 3 of 3
L27T/G49Q/G94I | 4.08 | 1 of 3
S26A/K50C/S92H | 4.44 | 2 of 3
N33C/K50T/N51C | 4.17 | 1 of 3
E23Y/Y31Q/S55L | 1.70 | 3 of 3
A32Q/S89Q/R90L | 3.99 | 2 of 3
L27C/N33F/N52A | 5.26 | 1 of 3
R53G/P54R/S92E | 3.54 | 2 of 3
N51Y/F98A | 4.02 | 3 of 3
E23F/L27N/V97N | 3.68 | 2 of 3
S26V/Y29F/Y31V | 3.43 | 3 of 3
N51F/F95E | 3.29 | 3 of 3
E23G/S26C/R90F | 4.04 | 2 of 3
D25N/Y31D/V97I | 0.71 | 3 of 3
D25Q/G49H/V97H | 4.68 | 1 of 3
G24R/Y30M/R53T | 3.12 | 2 of 3

Continued, with the values leading:

mean log10 Kd (nM) | seen in | changes
3.81 | 2 of 3 | Y29I/G49L/F98Q
3.03 | 3 of 3 | L27A/N33R/S55R
not detected | 0 of 3 | R28K/S92H/Q96D
3.14 | 1 of 3 | G24W/S26F/G94C
4.23 | 1 of 3 | Y29T/N52Y/P54K
3.67 | 1 of 3 | E23T/G49E/K50V
2.20 | 3 of 3 | D25K/S55Q
not detected | 0 of 3 | E23N/L27G/N33I
3.93 | 1 of 3 | Y29W/G49L/S93Y
not detected | 0 of 3 | D25A/R90E/F95E
1.96 | 3 of 3 | Y29F/S55E
not detected | 0 of 3 | S26V/F95K
4.06 | 3 of 3 | E23Y/L27Y/A32W
2.89 | 3 of 3 | R28N/V97R
not detected | 0 of 3 | E23I/D25Q/F98R
1.97 | 3 of 3 | D25C/L27T/Y30N
2.95 | 3 of 3 | E23Q/G24K/K50P
3.87 | 2 of 3 | E23L/S26I/S89M
3.45 | 3 of 3 | S26M/R28K/A32N
4.11 | 1 of 3 | D25T/D91I
not detected | 0 of 3 | S26D/N51K/N52P
2.82 | 3 of 3 | Y30T/P54C/F95W
4.53 | 2 of 3 | R28F/A32M/R53V
5.12 | 2 of 3 | R28F/N33K/R53V
3.58 | 3 of 3 | S55T/R90S/F95Y
1.42 | 3 of 3 | Y31S/G94P
3.58 | 1 of 3 | S26I/Y31V/S89L
3.73 | 3 of 3 | Y29F/S89E/S92C
2.12 | 3 of 3 | D91I/G94W
not detected | 0 of 3 | S26Y/G49S/S93F
2.89 | 3 of 3 | P54C/S93P
3.82 | 3 of 3 | Y29A/A32C/N51Y
3.52 | 1 of 3 | K50F/G94M/F95T

Values reported by Engelhart et al. 2022, doi:10.1038/s41597-022-01779-4 (FLAb copy).